Laboratory results from ChEMBL document CHEMBL5543159, “Discovery of an Ortho-Substituted N-Cyclopropylmethyl-7α-phenyl-6,14-endoethano-tetrahydronorthebaine Derivative as a Selective and Potent Kappa Opioid Receptor Agonist with Subsided Sedative Effect” (2024).

Experiments:
[1] = biological target: T1, Mu-type opioid receptor (Rattus norvegicus, UniProt P33535); experiment: Displacement of [3H]-DAMGO from rat MOR receptor expressed in CHO cell membrane assessed as inhibition constant incubated for 1 hrs by liquid scintillation counting method
[2] = biological target: T2, Delta-type opioid receptor (Rattus norvegicus, UniProt P33533); experiment: Displacement of [3H]DPDPE from rat DOR expressed in CHO cells membrane assessed as inhibition constant incubated for 1 hrs by liquid scintillation counting method
[3] = biological target: T3, Kappa-type opioid receptor (Homo sapiens, UniProt P41145); experiment: Displacement of [3H]U69593 from human KOR expressed in CHO cells membrane assessed as inhibition constant incubated for 1 hrs by liquid scintillation counting method
[4] = test system: Mus musculus; experiment: Antinociceptive activity in ip dosed female Kunming mouse assessed as reduction in nociceptive response measured after 8 hrs by hot plate test
[5] = test system: Mus musculus; experiment: Antinociceptive activity in ip dosed male Kunming mouse assessed as reduction in nociceptive response measured after 8 hrs by abdominal constriction test; conditions: dose 0.25-1 mg/kg
[6] = test system: Mus musculus; experiment: Antinociceptive activity in ip dosed female ICR mouse assessed as reduction in nociceptive response measured after 8 hrs by hot plate test
[7] = test system: Mus musculus; experiment: Antinociceptive activity in ip dosed male ICR mouse assessed as reduction in nociceptive response measured after 8 hrs by abdominal constriction test; conditions: dose 0.25-1 mg/kg
[8] = biological target: T1, Mu-type opioid receptor; experiment: Agonist activity at rat MOR expressed in CHO cell membrane assessed as stimulation of [35S]-GTPgammaS binding incubated for 1 hr by liquid scintillation counting assay
[9] = biological target: T2, Delta-type opioid receptor; experiment: Agonist activity at rat DOR expressed in CHO cell membrane assessed as stimulation of [35S]-GTPgammaS binding incubated for 1 hr by liquid scintillation counting assay
[10] = biological target: T3, Kappa-type opioid receptor; experiment: Agonist activity at human KOR expressed in CHO cell membrane assessed as stimulation of [35S]-GTPgammaS binding incubated for 1 hr by liquid scintillation counting assay

Structure (SMILES)	Ki [1]	Ki [2]	Ki [3]	other results
COc1ccc2c3c1O[C@H]1[C@@]4(OC)CC[C@@]5(C[C@@H]4c4ccccc4NC(=O)c4ccccc4O)[C@@H](C2)N(CC2CC2)CC[C@]315	682 nM	1.17 µM	221 nM	–
COc1ccc2c3c1O[C@H]1[C@@]4(OC)CC[C@@]5(C[C@@H]4c4ccccc4NCC4CCCC4)[C@@H](C2)N(CC2CC2)CC[C@]315	> 5000 nM	> 5 µM	130 nM	–
COc1ccc(CNc2cccc([C@H]3C[C@@]45CC[C@]3(OC)[C@@H]3Oc6c(OC)ccc7c6[C@@]34CCN(CC3CC3)[C@@H]5C7)c2)cc1	–	–	–	ED50 [4]: 0.1 mg/kg; ED50 [5]: 0.2 mg/kg
COc1ccc2c3c1O[C@H]1[C@@]4(OC)CC[C@@]5(C[C@@H]4c4ccccc4NCc4ccccc4)[C@@H](C2)N(CC2CC2)CC[C@]315 [listing 1 of 2 here]	–	–	–	ED50 [6]: 0.3 mg/kg; ED50 [7]: 0.2 mg/kg; ED50 [4]: 0.2 mg/kg; ED50 [5]: 0.6 mg/kg
COc1ccc2c3c1O[C@H]1[C@@]4(OC)CC[C@@]5(C[C@@H]4c4ccccc4NC(=O)OCc4ccccc4)[C@@H](C2)N(CC2CC2)CC[C@]315	532 nM	4.1 µM	182 nM	–
COc1ccc2c3c1O[C@H]1[C@@]4(OC)CC[C@@]5(C[C@@H]4c4ccccc4NC(=O)C4CC4)[C@@H](C2)N(CC2CC2)CC[C@]315	> 5000 nM	> 5 µM	> 5000 nM	–
COc1ccc2c3c1O[C@H]1[C@@]4(OC)CC[C@@]5(C[C@@H]4c4ccccc4NCC4CCN(C(=O)OC(C)(C)C)CC4)[C@@H](C2)N(CC2CC2)CC[C@]315	> 5000 nM	> 5 µM	1770 nM	–
COc1ccc2c3c1O[C@H]1[C@@]4(OC)CC[C@@]5(C[C@@H]4c4ccccc4NC(=O)Cc4ccccc4)[C@@H](C2)N(CC2CC2)CC[C@]315	167 nM	0.326 µM	71.6 nM	EC50 [8]: Not Active; EC50 [9]: 448 nM; EC50 [10]: 289 nM
COc1ccc2c3c1O[C@H]1[C@@]4(OC)CC[C@@]5(C[C@@H]4c4ccccc4NC(=O)C(C)(C)C)[C@@H](C2)N(CC2CC2)CC[C@]315	783 nM	0.552 µM	> 5000 nM	–
COc1ccc2c3c1O[C@H]1[C@@]4(OC)CC[C@@]5(C[C@@H]4c4ccccc4NC(=O)c4ccccc4)[C@@H](C2)N(CC2CC2)CC[C@]315	868 nM	> 5 µM	18.9 nM	EC50 [8]: 1080 nM; EC50 [9]: > 10000 nM; EC50 [10]: 18 nM
COc1ccc2c3c1O[C@H]1[C@@]4(OC)CC[C@@]5(C[C@@H]4c4ccccc4N(C)Cc4ccc(C(F)(F)F)cc4)[C@@H](C2)N(CC2CC2)CC[C@]315	605 nM	3.76 µM	191 nM	–
COc1ccc2c3c1O[C@H]1[C@@]4(OC)CC[C@@]5(C[C@@H]4c4ccccc4NC(=O)Cc4ccc(C)c(C)c4)[C@@H](C2)N(CC2CC2)CC[C@]315	> 5000 nM	2.47 µM	> 5000 nM	–
COc1ccc2c3c1O[C@H]1[C@@]4(OC)CC[C@@]5(C[C@@H]4c4ccccc4NC(=O)c4ccc(Cl)c(Cl)c4)[C@@H](C2)N(CC2CC2)CC[C@]315	674 nM	1.51 µM	1020 nM	–
COc1ccc(CNc2ccccc2[C@H]2C[C@@]34CC[C@]2(OC)[C@@H]2Oc5c(OC)ccc6c5[C@@]23CCN(CC2CC2)[C@@H]4C6)cc1	650 nM	> 5 µM	126 nM	–
COc1ccc2c3c1O[C@H]1[C@@]4(OC)CC[C@@]5(C[C@@H]4c4ccccc4NCC4CC4)[C@@H](C2)N(CC2CC2)CC[C@]315	4530 nM	> 5 µM	218 nM	–
COc1ccc2cc([C@H](C)C(=O)Nc3ccccc3[C@H]3C[C@@]45CC[C@]3(OC)[C@@H]3Oc6c(OC)ccc7c6[C@@]34CCN(CC3CC3)[C@@H]5C7)ccc2c1	> 10000 nM	> 10 µM	> 10000 nM	–
COc1ccc2c3c1O[C@H]1[C@@]4(OC)CC[C@@]5(C[C@@H]4c4ccc(NC(=O)c6ccccc6)cc4)[C@@H](C2)N(CC2CC2)CC[C@]315	–	–	–	ED50 [4]: 0.2 mg/kg; ED50 [5]: 0.1 mg/kg
COc1ccc2c3c1O[C@H]1[C@@]4(OC)CC[C@@]5(C[C@@H]4c4ccccc4NCc4ccccc4)[C@@H](C2)N(CC2CC2)CC[C@]315 [listing 2 of 2 here]	1050 nM	4.2 µM	3.9 nM	EC50 [8]: 701 nM; EC50 [9]: 1650 nM; EC50 [10]: 3.4 nM
COc1ccc2c3c1O[C@H]1[C@@]4(OC)CC[C@@]5(C[C@@H]4c4ccccc4NC(=O)c4ccc6[nH]ccc6c4)[C@@H](C2)N(CC2CC2)CC[C@]315	> 10000 nM	> 10 µM	2060 nM	–
COc1ccc2c3c1O[C@H]1[C@@]4(OC)CC[C@@]5(C[C@@H]4c4ccccc4NC(=O)c4ccc(C)c(C)c4)[C@@H](C2)N(CC2CC2)CC[C@]315	787 nM	> 5 µM	53.5 nM	–
COc1ccc2c3c1O[C@H]1[C@@]4(OC)CC[C@@]5(C[C@@H]4c4ccccc4N)[C@@H](C2)N(CC2CC2)CC[C@]315	206 nM	3.84 µM	54.6 nM	–
